The text below walks through data of EPA's ToxValDB 9.5.

For series [1], the system named is Rattus norvegicus. Particulars: chronic; oral; diet; M; renal effects: urothelial hyperplasia.
For series [2], the system named is Mus musculus. Conditions: short-term; duration: 11 days; inhalation; F; cerebellar lesions.
For series [3], the system named is Rattus norvegicus. Conditions: chronic; duration: 93 days; inhalation; M/F; Sprague-Dawley; neurological.
In series [4] the test system is Mus musculus. Conditions: inhalation, whole body, neurological.
Series [5] concerns Rattus norvegicus. Conditions: acute, oral.

Each structure is given as a SMILES string.

Usually LOAEL stands for the lowest tested level that showed an adverse finding. As a reminder, the NOAEL is the highest tested level that showed no adverse finding. In the series on Rattus norvegicus [1], `[O-][Br+2]([O-])[O-]` [Bromate] yielded an LOAEL of 6.1 mg/kg-day and an NOAEL of 1.1 mg/kg-day.

As to `CCl` [Chloromethane], the LOAEL came out at 206 mg/m3 in the series on Mus musculus [2] and 105 mg/m3 with Mus musculus [4] (chronic, duration: 24 months, M/F, B6C3F1). Also, the NOAEL with Mus musculus [2] is 103 mg/m3; in the series with Rattus norvegicus [3], 105 mg/m3; with Mus musculus [4] (short-term, duration: 11 days, F, C57BL/6) it was 103 mg/m3.

Usually LD50 stands for the dose at which mortality reaches 50%. High values mean lower toxicity, low ones greater toxicity. With `CC(O)C(=O)O` (centres undefined) [Lactic acid], the LD50 with Rattus norvegicus [5] was at least 3540 mg/kg.

`CC(C)CCC(C)Nc1ccc(Nc2ccccc2)cc1` (centres undefined) [N-(5-Methyl-2-hexyl)-N'-phenyl-p-phenylenediamine]: in the series on Rattus norvegicus [5] (gavage, Wistar), the LD50 was determined as 2100 mg/kg.
